Protein sequences, listed by entry. Tags and fused reporters are not part of them. Lines headed by an entry give the natural chain unless they say otherwise; changes in a name come on top.
UniProt P31421: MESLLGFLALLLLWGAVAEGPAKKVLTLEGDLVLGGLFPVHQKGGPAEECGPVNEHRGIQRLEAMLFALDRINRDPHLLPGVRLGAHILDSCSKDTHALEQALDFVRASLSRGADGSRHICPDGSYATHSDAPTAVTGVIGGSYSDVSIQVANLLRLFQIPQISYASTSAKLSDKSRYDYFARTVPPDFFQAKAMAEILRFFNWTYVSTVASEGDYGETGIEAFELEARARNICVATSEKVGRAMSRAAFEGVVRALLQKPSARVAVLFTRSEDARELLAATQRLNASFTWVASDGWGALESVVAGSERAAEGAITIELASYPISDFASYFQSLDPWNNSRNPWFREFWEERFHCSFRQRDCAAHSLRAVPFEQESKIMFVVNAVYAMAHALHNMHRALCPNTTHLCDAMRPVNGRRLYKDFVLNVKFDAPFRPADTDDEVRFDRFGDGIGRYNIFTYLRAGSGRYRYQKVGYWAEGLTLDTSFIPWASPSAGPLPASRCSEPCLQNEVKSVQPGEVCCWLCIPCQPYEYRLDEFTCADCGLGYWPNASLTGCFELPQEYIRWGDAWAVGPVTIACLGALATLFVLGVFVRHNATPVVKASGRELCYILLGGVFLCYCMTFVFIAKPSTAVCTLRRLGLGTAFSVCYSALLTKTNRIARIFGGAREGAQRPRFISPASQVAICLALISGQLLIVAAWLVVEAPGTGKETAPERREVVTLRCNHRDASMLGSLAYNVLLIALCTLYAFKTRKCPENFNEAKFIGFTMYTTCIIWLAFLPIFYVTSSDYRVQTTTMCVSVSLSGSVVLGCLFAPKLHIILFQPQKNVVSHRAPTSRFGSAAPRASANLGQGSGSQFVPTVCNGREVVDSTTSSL
UniProt P31422: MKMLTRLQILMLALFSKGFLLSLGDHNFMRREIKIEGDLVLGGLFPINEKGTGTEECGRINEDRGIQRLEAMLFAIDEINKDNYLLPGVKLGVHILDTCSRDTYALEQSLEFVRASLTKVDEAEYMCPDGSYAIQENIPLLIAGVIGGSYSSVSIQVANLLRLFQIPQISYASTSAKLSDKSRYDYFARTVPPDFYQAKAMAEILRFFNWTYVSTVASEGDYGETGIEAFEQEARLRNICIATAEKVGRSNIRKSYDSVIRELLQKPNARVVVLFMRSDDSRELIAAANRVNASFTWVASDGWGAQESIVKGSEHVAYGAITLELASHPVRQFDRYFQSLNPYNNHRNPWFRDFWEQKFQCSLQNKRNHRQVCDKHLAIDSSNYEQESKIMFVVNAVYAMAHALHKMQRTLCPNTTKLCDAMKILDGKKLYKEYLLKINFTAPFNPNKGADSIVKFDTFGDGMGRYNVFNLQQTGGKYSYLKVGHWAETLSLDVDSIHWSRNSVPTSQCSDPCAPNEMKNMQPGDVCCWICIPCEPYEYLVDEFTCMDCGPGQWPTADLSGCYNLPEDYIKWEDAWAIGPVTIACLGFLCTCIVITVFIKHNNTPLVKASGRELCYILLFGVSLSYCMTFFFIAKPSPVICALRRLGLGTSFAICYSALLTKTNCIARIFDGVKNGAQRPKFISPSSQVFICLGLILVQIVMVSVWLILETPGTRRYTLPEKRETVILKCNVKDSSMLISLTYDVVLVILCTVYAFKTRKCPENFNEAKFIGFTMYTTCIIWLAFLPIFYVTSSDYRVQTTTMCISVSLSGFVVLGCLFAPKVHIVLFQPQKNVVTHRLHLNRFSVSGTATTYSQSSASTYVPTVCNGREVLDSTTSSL

According to ChEMBL document CHEMBL4020826, “Synthesis and Pharmacological Characterization of C4β-Amide-Substituted 2-Aminobicyclo[3.1.0]hexane-2,6-dicarboxylates. Identification of (1 S,2 S,4 S,5 R,6 S)-2-Amino-4-[(3-methoxybenzoyl)amino]bicyclo[3.1.0]hexane-2,6-dicarboxylic Acid (LY2794193), a Highly Potent and Selective mGlu3 Receptor …” (J Med Chem, 2018):

How the values were obtained:
[1] = target: T1, Group II metabotropic glutamate receptor (mGlu2/mGlu3) (Rattus norvegicus, UniProt P31421+P31422); experiment: Displacement of [3H]-LY459477 from mGlu2/3 receptor in Sprague-Dawley rat forebrain primary cortical membranes after 90 mins by liquid scintillation counting
[2] = target: T1, Group II metabotropic glutamate receptor (mGlu2/mGlu3); experiment: Agonist activity at mGlu2/3 receptor in Sprague-Dawley rat forebrain assessed as inhibition of spontaneous Ca2+ oscillations in cortical neurons after 300 secs by FLIPR assay; assay type: functional

Compound: N[C@@]1(C(=O)O)CC[C@H]2[C@H](C(=O)O)[C@H]21 [EGLUMETAD]
- Ki [1]: 476 nM
- EC50 [2]: 9.8 nM
